Apparent affinities of Ab-95 variants for a coronavirus HR2 peptide

From the AlphaSeq antibody data of Engelhart et al. 2022 (doi:10.1038/s41597-022-01779-4), copy in the FLAb collection.

Antigen: PDVDLGDISGINAS, a 14-residue peptide of the SARS-CoV-2 spike HR2 region.

The variants keep the heavy chain, the linker and the frameworks of Ab-95 (scFv order VH, the linker GGGGSGGGGSGGGGS, VL).
VH: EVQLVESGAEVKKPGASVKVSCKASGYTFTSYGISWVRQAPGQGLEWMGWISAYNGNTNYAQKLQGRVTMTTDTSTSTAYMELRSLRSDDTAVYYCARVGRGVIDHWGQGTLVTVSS
VL: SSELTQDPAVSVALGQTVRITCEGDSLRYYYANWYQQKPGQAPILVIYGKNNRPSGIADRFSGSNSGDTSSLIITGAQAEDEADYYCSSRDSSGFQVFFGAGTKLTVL

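Phage display of a naive human antibody library on the peptide gave the parent. Variants in AAYL52 differ from the parent at up to three CDR positions; double and triple changes were sampled at random. AlphaSeq pools MATa yeast showing the antibodies with MATalpha yeast showing the peptide. After mating in shaken culture at 30 °C for 16 h, diploids were selected and their barcode pairs sequenced. Each replicate has its own calibration line, from reference interactions of the BCL2 family. The assay was run in three technical replicates.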

The parent's light chain CDRs are EGDSLRYYYAN, GKNNRPS, SSRDSSGFQVF; each variant's own CDRs replace them letter for letter.
Affinities are written as log10 Kd with Kd in nM; a lower number is a better binder.
The mean shown is taken over the replicates in which the pair was detected.
"ND" means that the variant was in the library but no mating with the target was seen in that replicate; the authors take this as a sign of poor binding, and no number exists.
In this assay the parent's reference entry averaged 2.31; its copy inside this library read 2.25.

CDR-L1	CDR-L2	CDR-L3	log10 Kd, replicates	log10 Kd (nM), mean	empty controls
EGVSLRYEEAN	GKNNRPS	SSRDSSGFQVF	1.46 1.31 1.08	1.28	6 of 9 (4.17)
EGDSLRYYDAN	GKNNRPS	SSPTSSGFQVF	ND ND 4.50	4.50	3 of 9 (4.24)
EGTSLRYYYAN	GKPNQPS	SSRDSSGFQVF	4.19 ND ND	4.19	4 of 9 (3.94)
EGDSLRDYYAN	GKNNRMS	SSRDISGFQVF	2.39 2.88 2.16	2.48	5 of 9 (4.25)
TGDSLRYYYAN	GKNMRPS	SSRDSAGFQVF	2.68 2.28 2.46	2.47	3 of 9 (3.85)
EGISLRYYYAN	LKNNRPS	SSRDSSGFHVF	4.34 3.96 3.30	3.87	4 of 9 (4.25)
EGDSMRYYYAN	GKNNRPS	SSRDDSGFQVK	ND 3.26 ND	3.26	0 of 9
EGDSLRYYYAN	GKNNPPS	SSRDSMGFQVF	5.68 3.77 ND	4.73	2 of 9 (3.03)
EGQSLRYGYAN	GKNNRPS	SSRDSNGFQVF	1.47 1.29 1.01	1.26	4 of 9 (4.39)
EGDSLRYYYAN	GKNWKPS	HSRDSSGFQVF	ND ND ND	ND	0 of 9
EGDSLRYYCAV	GKNNMPS	SSRDSSGFQVF	2.94 4.60 3.17	3.57	2 of 9 (3.99)
EGDSLRYYYAD	GKNNRPS	SSRSSSGFEVF	3.77 2.97 ND	3.37	1 of 9 (2.80)
EGDSERYYYAN	GKNNRPW	SSPDSSGFQVF	4.08 5.38 ND	4.73	3 of 9 (4.35)
EGRSLRYYYAN	GKNNRPS	SSRDDSGFSVF	2.79 2.99 2.29	2.69	1 of 9 (4.15)
EGDSLRYYYAN	GKMFRPS	SPRDSSGFQVF	ND 3.91 3.91	3.91	2 of 9 (4.57)
EGDSLCYYYGN	GKNNRPS	SSRDSFGFQVF	ND 3.81 ND	3.81	2 of 9 (4.72)
EGDSLRYYYAN	VKNNEMS	SSRDSSGFQVF	3.97 3.77 ND	3.87	2 of 9 (4.35)
EGDSLRQYYAN	GKNNRPG	SSRDSSGEQVF	2.25 2.35 1.74	2.11	6 of 9 (4.05)
EGYSLRYYYAA	GKNNRPS	QSRDSSGFQVF	3.52 2.98 2.66	3.05	5 of 9 (3.93)
EGDSLRYYYAN	GKQNRAS	SSRDSSGFSVF	3.53 3.07 2.32	2.97	0 of 9
EGDSLKYYYAN	GKNNRPS	SDRDSSGFQVA	2.92 3.40 3.58	3.30	3 of 9 (3.50)
FGDSLRYYVAN	GKNNRCS	SSRDSSGFQVF	ND ND 2.42	2.42	3 of 9 (3.46)
EGDSLEYYYAN	GKNNRPS	SSLDSSNFQVF	5.45 ND ND	5.45	1 of 9 (2.92)
EGDSLRYYYAN	DKNNRPS	SSRDSSGHQRF	ND ND ND	ND	1 of 9 (3.32)
EGDSLRYYYPN	GLNNRPL	SSRDSSGFQVF	1.61 1.25 0.99	1.29	3 of 9 (3.51)
EQDSARYYYAN	GKNNRPS	SSDDSSGFQVF	ND ND ND	ND	1 of 9 (4.75)
EGDSQRYYYAN	GKNNTPS	LSRDSSGFQVF	ND 5.70 3.65	4.67	2 of 9 (3.81)
EGDSLRYYYAE	GKNNRPS	SSMDSSGFQVS	ND ND ND	ND	2 of 9 (3.53)
EGWSLRYYYAQ	GKNNRHS	SSRDSSGFQVF	3.93 5.02 ND	4.47	3 of 9 (4.77)
ELDSLRYYYAN	GKNNRPS	SSMDSNGFQVF	ND ND 3.35	3.35	3 of 9 (4.08)
QGDSLRYYYAN	GKNNPPS	SSRDSSGFQEF	2.86 3.66 3.03	3.18	3 of 9 (3.80)
EGDSLRYQYAN	GKNNRPS	SSNDSSGFQLF	0.90 0.59 0.13	0.54	5 of 9 (3.93)
EGDSLVYYYAN	GKNNNPS	SSRDSSGFQVF	ND 3.95 3.13	3.54	0 of 9
EGDSTRYYYAN	FKNNRPS	SSRDSSGFQVS	3.92 ND 3.56	3.74	8 of 9 (3.86)
EGDSLRYYYAY	TKFNRPS	SSRDSSGFQVF	ND ND 4.67	4.67	3 of 9 (4.58)
EGDSLRYYYAN	GKNNRPY	SSRDSNGFQVN	ND ND ND	ND	1 of 9 (3.99)
EGDSLRYYYAN	GKNNRKS	STRDGSGFQVF	ND ND ND	ND	2 of 9 (4.87)
EGDSLRYYYAK	GKNNRPS	SSRGSSGFPVF	ND ND 3.76	3.76	2 of 9 (4.61)
EGDLLRYYYAN	GKNNIPS	SSRDSSEFQVF	5.43 ND ND	5.43	2 of 9 (4.84)
EGDSNRYYYAN	GKNNRPG	SSNDSSGFQVF	ND ND ND	ND	1 of 9 (3.98)
EGDSLRYVYAN	GKNNHPH	SSRDSSGFQVF	2.71 3.43 2.53	2.89	1 of 9 (3.63)
LGDSLRYYYFN	GKNNRPS	SHRDSSGFQVF	4.20 4.42 ND	4.31	3 of 9 (4.26)
EGPSLRYYYPN	GKNNRPS	SSRDYSGFQVF	2.18 1.84 1.18	1.73	0 of 9
EGDSLRYIYAN	GKNNRPS	SSRDLSGFQLF	3.45 3.33 2.64	3.14	2 of 9 (4.64)

From the list, the first 6 with no signal in any replicate:

CDR-L1	CDR-L2	CDR-L3	log10 Kd, replicates	log10 Kd (nM), mean	empty controls
EGDSLRYYYAN	GKNWKPS	HSRDSSGFQVF	ND ND ND	ND	0 of 9
EGDSLRYYYAN	DKNNRPS	SSRDSSGHQRF	ND ND ND	ND	1 of 9 (3.32)
EQDSARYYYAN	GKNNRPS	SSDDSSGFQVF	ND ND ND	ND	1 of 9 (4.75)
EGDSLRYYYAE	GKNNRPS	SSMDSSGFQVS	ND ND ND	ND	2 of 9 (3.53)
EGDSLRYYYAN	GKNNRPY	SSRDSNGFQVN	ND ND ND	ND	1 of 9 (3.99)
EGDSLRYYYAN	GKNNRKS	STRDGSGFQVF	ND ND ND	ND	2 of 9 (4.87)

Background: pairings of library AAYL52 with three empty control strains gave a value in 28% of cases (median 3.91, 5th percentile 2.90). Values in that range, when seen in few replicates, are hard to tell from nonspecific mating. The control count says in how many pairings with the empty strains this scFv gave a signal, with their mean in brackets.